From publication PMC4496781, “Functional Roles of Aromatic Residues and Helices of Papiliocin in its Antimicrobial and Anti-inflammatory Activities” (Scientific Reports, 2015)

Tests used:
Conditions in all cases: broth microdilution, 16 h incubation; three independent experiments in triplicate, SD 14.0%
Staphylococcus aureus = system: Staphylococcus aureus
Protocol: (§1) MICs of the peptides against six standard bacteria and four multidrug-resistant bacteria were determined by a broth microdilution assay as described previously. […] Cytotoxicities against mammalian cells were measured against human RBCs, mouse macrophage-derived RAW264.7 cells, and fibroblast NIH-3T3 cells. The anti-inflammatory activities of the peptides were examined by inhibiting nitrite production in LPS-stimulated RAW264.7 cells.

Salmonella typhimurium = system: Salmonella typhimurium
Protocol: as §1

Bacillus subtilis = system: Bacillus subtilis
Protocol: as §1

Escherichia coli = system: Escherichia coli
Protocol: as §1

Pseudomonas aeruginosa = system: Pseudomonas aeruginosa
Protocol: as §1

CC[C@H](C)[C@H](NC(=O)CN)C(=O)NCC(=O)N[C@@H](C)C(=O)N[C@H](C(=O)N[C@@H](CC(C)C)C(=O)N[C@@H](CCCCN)C(=O)N[C@H](C(=O)N[C@@H](CC(C)C)C(=O)N[C@H](C(=O)N[C@H](C(=O)NCC(=O)N[C@@H](CC(C)C)C(=O)N1CCC[C@H]1C(=O)N[C@@H](C)C(=O)N[C@@H](CC(C)C)C(=O)N[C@H](C(=O)N[C@@H](CO)C(=O)N[C@@H](Cc1c[nH]c2ccccc12)C(=O)N[C@H](C(=O)N[C@@H](CCCCN)C(=O)N[C@@H](CCCNC(=N)N)C(=O)N[C@@H](CCCCN)C(=O)N[C@@H](CCCNC(=N)N)C(=O)N[C@@H](CCC(N)=O)C(=O)N[C@@H](CCC(N)=O)C(N)=O)[C@@H](C)CC)[C@@H](C)CC)[C@@H](C)O)[C@@H](C)O)C(C)C)C(C)C [Melittin, reference compound]
4.00 µM: MIC, Staphylococcus aureus (Staphylococcus aureus) | MIC, Salmonella typhimurium (Salmonella typhimurium) | MIC, Bacillus subtilis (Bacillus subtilis) | MIC, Escherichia coli (Escherichia coli) | MIC, Pseudomonas aeruginosa (Pseudomonas aeruginosa)
